# Measurements: publication PMC10700596 (Nature Communications, 2023)
# Sequences of proteins named here, by UniProt entry; tags and fusion partners are left off. A change or cut given only in a name is not applied to a line headed by its entry.
# UniProt P35408: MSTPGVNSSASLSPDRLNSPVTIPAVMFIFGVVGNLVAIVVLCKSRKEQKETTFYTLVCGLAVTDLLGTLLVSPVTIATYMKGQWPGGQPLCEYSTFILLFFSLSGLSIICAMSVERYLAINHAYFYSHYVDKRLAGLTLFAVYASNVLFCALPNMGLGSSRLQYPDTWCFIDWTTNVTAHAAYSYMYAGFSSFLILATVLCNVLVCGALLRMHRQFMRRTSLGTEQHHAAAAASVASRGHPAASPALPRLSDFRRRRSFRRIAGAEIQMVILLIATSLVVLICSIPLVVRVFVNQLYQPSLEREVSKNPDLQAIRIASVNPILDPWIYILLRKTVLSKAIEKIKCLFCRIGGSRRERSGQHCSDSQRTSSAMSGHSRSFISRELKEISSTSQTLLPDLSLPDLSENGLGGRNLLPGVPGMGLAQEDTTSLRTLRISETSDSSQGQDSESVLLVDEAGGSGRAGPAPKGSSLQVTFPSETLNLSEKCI
# Target: wild-type EP4R (Homo sapiens, UniProt P35408)
# Type: cell-based
# Conditions: relative to 74; Supplementary Data 1
smiles,measurement,value
"CN(c1ncnc2[nH]c3ccccc3c12)C1CC2(CCC(C(=O)O)CC2)C1 (stereo not shown) [Compound 76, CN(C1CC2(C1)CCC(CC2)C(=O)O)C=3N=CN=C4NC=5C=CC=CC5C34]",reduced potency of analog,up to 10 fold
